For the experiment, the target named is Recombinant Saccharomyces cerevisiae histone H3/H4 (Saccharomyces cerevisiae). Nature of the experiment: pull-down; GST-Mcm2HBD on Glutathione Sepharose first loaded with histone H3/H4 and washed, then wild-type or Spt16-ΔN FACT in 0.8 ml buffer A150 overnight, 4°C; CBB staining. Conditions: both partners purified.

B1: wild-type FACT (FACT WT), purified through TAP-tagged full-length Spt16 (complex, budding yeast (S. cerevisiae))
chain 1: MEELNIDFDVFKKRIELLYSKYNEFEGSPNSLLFVLGSSNAENPYQKTTILHNWLLSYEFPATLIALVPGKVIIITSSAKAKHLQKAIDLFKDPESKITLELWQRNNKEPELNKKLFDDVIALINSAGKTVGIPEKDSYQGKFMTEWNPVWEAAVKENEFNVIDISLGLSKVWEVKDVNEQAFLSVSSKGSDKFMDLLSNEMVRAVDEELKITNAKLSDKIENKIDDVKFLKQLSPDLSALCPPNYKFNFDLLDWTYSPIIQSGKKFDLRVSARSTNDQLYGNGCILASCGIRYNNYCSNITRTFLIDPSEEMANNYDFLLTLQKEIVTNILKPGRTPKEVYESVIEYIEKTKPELVPNFTKNIGSLIGLEFRDSNFILNVKNDYRKIQRGDCFNISFGFNNLKDSQSANNYALQLADTVQIPLDETEPPRFLTNYTKAKSQISFYFNNEEEDNNKKKSSPATKVPSKPDRNSKILRTKLRGEARGGAEDAQKEQIRKENQKKLHEKLEKNGLLRFSAADANGPDSEPRQYFKKYESYVRDSQLPTNIRDLRIHVDWKSQTIILPIYGRPVPFHINSYKNGSKNEEGEYTYLRLNFNSPGSSGGISKKVEELPYEESADNQFVRSITLRSKDGDRMSETFKQIADLKKEATKREQERKALADVVQQDKLIENKTGRTKRLDQIFVRPNPDTKRVPSTVFIHENGIRFQSPLRTDSRIDILFSNIKNLIFQSCKGELIVVIHIHLKNPILMGKKKIQDVQFYREASDMSVDETGGGRRGQSRFRRYGDEDELEQEQEERRKRAALDKEFKYFADAIAEASNGLLTVENTFRDLGFQGVPNRSAVFCMPTTDCLVQLIEPPFLVINLEEVEICILERVQFGLKNFDMVFVYKDFNKPVTHINTVPIESLDFLKQWLTDMDIPYTVSTINLNWATIMKSLQDDPYQFFLDGGWNFLATGSDDEASDESEEEVSEYEASEDDVSDESAFSEDEEGSEVDDDISGDESEDYTGDESEEGEDWDELEKKAARADRGANFRD
chain 2: MSTDFDRIYLNQSKFSGRFRIADSGLGWKISTSGGSAANQARKPFLLPATELSTVQWSRGCRGYDLKINTKNQGVIQLDGFSQDDYNLIKNDFHRRFNIQVEQREHSLRGWNWGKTDLARNEMVFALNGKPTFEIPYARINNTNLTSKNEVGIEFNIQDEEYQPAGDELVEMRFYIPGVIQTNVDENMTKKEESSNEVVPKKEDGAEGEDVQMAVEEKSMAEAFYEELKEKADIGEVAGDAIVSFQDVFFTTPRGRYDIDIYKNSIRLRGKTYEYKLQHRQIQRIVSLPKADDIHHLLVLAIEPPLRQGQTTYPFLVLQFQKDEETEVQLNLEDEDYEENYKDKLKKQYDAKTHIVLSHVLKGLTDRRVIVPGEYKSKYDQCAVSCSFKANEGYLYPLDNAFFFLTKPTLYIPFSDVSMVNISRAGQTSTSSRTFDLEVVLRSNRGSTTFANISKEEQQLLEQFLKSKNLRVKNEDREVQERLQTALGSDSDEEDINMGSAGEDDESVDEDFQVSSDNDADEVAEEFDSDAALSDAEGGSDEERPSKKPKVE
notes: Spt16, subunit of the FACT complex, budding yeast; Pob3, subunit of the FACT complex, budding yeast; co-purified with Spt16-TAP; Eluted with TEV; also called FACT WT complex; source: yeast cells, purified (IgG beads, 500 mM NaCl wash, TEV elution)
As to B1, the binding result is given as “binds”.

B2: mutant FACT lacking the Spt16-N domain (FACTΔN), purified through TAP-tagged Spt16-ΔN (complex, budding yeast (S. cerevisiae))
chain 1: MRGGAEDAQKEQIRKENQKKLHEKLEKNGLLRFSAADANGPDSEPRQYFKKYESYVRDSQLPTNIRDLRIHVDWKSQTIILPIYGRPVPFHINSYKNGSKNEEGEYTYLRLNFNSPGSSGGISKKVEELPYEESADNQFVRSITLRSKDGDRMSETFKQIADLKKEATKREQERKALADVVQQDKLIENKTGRTKRLDQIFVRPNPDTKRVPSTVFIHENGIRFQSPLRTDSRIDILFSNIKNLIFQSCKGELIVVIHIHLKNPILMGKKKIQDVQFYREASDMSVDETGGGRRGQSRFRRYGDEDELEQEQEERRKRAALDKEFKYFADAIAEASNGLLTVENTFRDLGFQGVPNRSAVFCMPTTDCLVQLIEPPFLVINLEEVEICILERVQFGLKNFDMVFVYKDFNKPVTHINTVPIESLDFLKQWLTDMDIPYTVSTINLNWATIMKSLQDDPYQFFLDGGWNFLATGSDDEASDESEEEVSEYEASEDDVSDESAFSEDEEGSEVDDDISGDESEDYTGDESEEGEDWDELEKKAARADRGANFRD
chain 2: MSTDFDRIYLNQSKFSGRFRIADSGLGWKISTSGGSAANQARKPFLLPATELSTVQWSRGCRGYDLKINTKNQGVIQLDGFSQDDYNLIKNDFHRRFNIQVEQREHSLRGWNWGKTDLARNEMVFALNGKPTFEIPYARINNTNLTSKNEVGIEFNIQDEEYQPAGDELVEMRFYIPGVIQTNVDENMTKKEESSNEVVPKKEDGAEGEDVQMAVEEKSMAEAFYEELKEKADIGEVAGDAIVSFQDVFFTTPRGRYDIDIYKNSIRLRGKTYEYKLQHRQIQRIVSLPKADDIHHLLVLAIEPPLRQGQTTYPFLVLQFQKDEETEVQLNLEDEDYEENYKDKLKKQYDAKTHIVLSHVLKGLTDRRVIVPGEYKSKYDQCAVSCSFKANEGYLYPLDNAFFFLTKPTLYIPFSDVSMVNISRAGQTSTSSRTFDLEVVLRSNRGSTTFANISKEEQQLLEQFLKSKNLRVKNEDREVQERLQTALGSDSDEEDINMGSAGEDDESVDEDFQVSSDNDADEVAEEFDSDAALSDAEGGSDEERPSKKPKVE
notes: Spt16 of budding yeast with residues 2–484 deleted; Pob3, subunit of the FACT complex, budding yeast; co-purified with Spt16-ΔN-TAP; Eluted with TEV; also called Spt16-ΔN FACT; Spt16ΔN form of the FACT complex; source: yeast cells, purified (IgG beads, 500 mM NaCl wash, TEV elution)
Regarding B2, the binding result is reported as “binds”.

These data come from article PMC10681723, “The N-terminus of Spt16 anchors FACT to MCM2–7 for parental histone recycling” (Nucleic Acids Research, 2023).
